This assay can be described thus: NCI Yeast Anticancer Drug Screen. Data for the rad52 strain (AID 147).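 Note: 0% = growth of vehicle-treated control cultures.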 As to conditions: S. cerevisiae rad52 mutant growth inhibition, active compounds read high. The protocol:
Growth inhibition of yeast strains with defined genetic alterations is measured as a screen for potential anti-cancer activity. Selected strains with alterations in DNA damage repair or cell cycle control were exposed to compounds and growth inhibition was measured relative to vehicle treated controls. The strain used in this assay is rad52

The list shows a part of the results, in another mix than the full data. More than one record can exist for a structure, and the calls need not agree. Calls of active or inactive are those of the source. Cut-off read from the data, not from the text of the source: active = growth inhibition above about 70%; inactive = the rest.

Turning to `N#Cc1cc([N+](=O)[O-])cc([N+](=O)[O-])c1N`, the growth inhibition is inactive: 7% (at 1.2 µM); inactive: 17% (at 3.7 µM); inactive: 31% (at 11.0 µM); inactive: 49% (at 33.0 µM); active: 70% (at 100.0 µM).

As to `O=[N+]([O-])c1cc([N+](=O)[O-])c2nsnc2c1`, the growth inhibition is inactive: 20% (at 1.2 µM); active: 75% (at 3.7 µM); active: 99% (at 11.0 µM); active: 99% (at 33.0 µM); active: 99% (at 100.0 µM).

As for `CC(C)c1nc(Nc2ccccc2)n(P(=O)(N(C)C)N(C)C)n1`, the growth inhibition by setting is: (at 1.2 µM) inactive: 8%; (at 3.7 µM) inactive: 25%; (at 11.0 µM) inactive: 20%; (at 33.0 µM) inactive: 59%; (at 100.0 µM) active: 90%.

`O=C1OC(C(Cl)(Cl)Cl)Sc2ccccc21` (stereo not given): the growth inhibition runs as follows: (at 1.2 µM) inactive: 1%; (at 3.7 µM) inactive: 5%; (at 11.0 µM) inactive: 20%; (at 33.0 µM) inactive: 51%; (at 100.0 µM) active: 76%.

Take `FC1(F)SC2C(C1(F)F)C1(Cl)C(Cl)=C(Cl)C2(Cl)C1(Cl)Cl` (stereo not given): the growth inhibition runs as follows: (at 1.2 µM) inactive: 31%; (at 3.7 µM) active: 94%; (at 11.0 µM) active: 99%; (at 33.0 µM) active: 98%; (at 100.0 µM) active: 98%.

On to `COc1cccc(C[N+](C)(CCCl)CCCl)c1[N+](=O)[O-]`, for which the growth inhibition is inactive: 2% (at 1.2 µM); inactive: 5% (at 3.7 µM); inactive: 25% (at 11.0 µM); active: 78% (at 33.0 µM); active: 94% (at 100.0 µM).

Source of the values: PubChem BioAssay (NCI).
